Experimental data as given in ChEMBL document CHEMBL5344485, “Discovery of CRN04894: A Novel Potent Selective MC2R Antagonist” (ACS Med Chem Lett, 2024).
Blank lines part the entries; values can stand above or below the molecule they belong to. Calls of active or inactive are those of the source. No cut-off for these calls is given here.

Protein sequences, listed by entry. Tags and fused reporters are not part of them. Lines headed by an entry give the natural chain unless they say otherwise; changes in a name come on top.
UniProt Q01718: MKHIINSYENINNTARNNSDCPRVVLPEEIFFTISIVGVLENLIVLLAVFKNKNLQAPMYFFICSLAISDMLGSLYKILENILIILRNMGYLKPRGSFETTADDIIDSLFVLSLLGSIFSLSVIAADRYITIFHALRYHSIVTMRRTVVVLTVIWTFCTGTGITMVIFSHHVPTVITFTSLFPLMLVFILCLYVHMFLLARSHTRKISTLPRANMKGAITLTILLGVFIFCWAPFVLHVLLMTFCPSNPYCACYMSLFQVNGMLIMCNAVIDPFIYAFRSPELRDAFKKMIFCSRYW
UniProt P28222, whole entry: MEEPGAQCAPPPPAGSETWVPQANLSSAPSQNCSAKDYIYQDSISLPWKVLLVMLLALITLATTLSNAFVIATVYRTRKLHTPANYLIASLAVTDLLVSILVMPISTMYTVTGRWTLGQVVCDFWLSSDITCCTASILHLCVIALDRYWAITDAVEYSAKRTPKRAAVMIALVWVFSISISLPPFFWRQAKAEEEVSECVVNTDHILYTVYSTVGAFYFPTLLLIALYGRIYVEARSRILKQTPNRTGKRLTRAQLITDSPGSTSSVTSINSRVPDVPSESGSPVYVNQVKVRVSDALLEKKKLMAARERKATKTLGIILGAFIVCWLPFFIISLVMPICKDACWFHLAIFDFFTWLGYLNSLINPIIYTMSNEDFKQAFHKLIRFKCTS
UniProt P32245, whole entry: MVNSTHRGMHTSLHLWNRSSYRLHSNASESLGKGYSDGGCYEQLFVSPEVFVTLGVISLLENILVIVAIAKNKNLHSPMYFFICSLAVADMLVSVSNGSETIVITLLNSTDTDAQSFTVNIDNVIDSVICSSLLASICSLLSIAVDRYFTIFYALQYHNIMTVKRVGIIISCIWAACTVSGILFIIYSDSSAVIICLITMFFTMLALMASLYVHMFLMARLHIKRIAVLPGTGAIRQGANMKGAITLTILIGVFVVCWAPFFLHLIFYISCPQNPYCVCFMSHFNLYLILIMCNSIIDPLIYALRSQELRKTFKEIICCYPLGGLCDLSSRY

What was measured:
[1] = biological target: T1, Adrenocorticotropic hormone receptor (Homo sapiens, UniProt Q01718); test: Antagonist activity at MC2R (unknown origin); assay type: functional; settings: filed as antagonist
Rattus norvegicus = test: In vivo antagonist activity at MC2R in Sprague-Dawley rat assessed as reduction in ACTH-stimulated corticosterone secretion at 3 to 30 mg/kg, po administered as single dose and measured after 24 to 48 hrs by LC-MS/MS analysis; assay type: functional, organism-based; settings: dose 3-30 mg/kg, time 24-48 hrs
Homo sapiens [2] = species: Homo sapiens; test: Selectivity ratio of IC50 for 5-HT1B (unknown origin) to IC50 for human MC2R
Homo sapiens [3] = species: Homo sapiens; test: Inhibition of sodium channel (unknown origin) at 10 uM relative to control
CHO-K1 [4] = test: Antagonist activity at rat MC2R expressed in CHO-K1 cells membrane assessed as cAMP accumulation preincubated for 30 mins followed by ACTH (1-24) addition and measured after 30 mins by HTRF based assay; assay type: cell membranes; settings: filed as antagonist, time 60.0 min
[5] = biological target: 5-hydroxytryptamine receptor 1B (Homo sapiens, UniProt P28222); test: Inhibition of 5-HT1B (unknown origin) at 10 uM relative to control
CHO-K1 [6] = test: Antagonist activity at dog MC2R assessed as reduction in ACTH (1-24) stimulated cAMP accumulation; assay type: cell membranes; settings: Canis lupus familiaris, Membrane, filed as antagonist, time 30.0 min
[7] = biological target: T1, Adrenocorticotropic hormone receptor; test: Antagonist activity at human MC2R expressed in CHO-K1 cells membrane assessed as ACTH(1-24) stimulated cAMP accumulation by measuring fold change at 10 uM relative to ACTH stimulation; assay type: functional, cell membranes; settings: filed as antagonist
CHO-K1 [8] = test: Antagonist activity at rat MC2R expressed in CHO-K1 cells membrane assessed as ACTH(1-24) stimulated cAMP accumulation by measuring fold change at 3 uM relative to ACTH stimulation; assay type: cell membranes; settings: filed as antagonist
Melanocortin receptor 4 = Melanocortin receptor 4 (Homo sapiens, UniProt P32245); test: Antagonist activity at human MC4R assessed as fold change at 10 uM; assay type: cell membranes; settings: Membrane, filed as antagonist

SMILES: NCc1cc(C(F)(F)F)ccc1N1CCN(C(=O)c2ccc(Cl)cc2Cl)CC1
- Kb [1]: 490 nM

SMILES: CCOc1ccccc1-c1ccc(N2CCN(C(=O)C3(C(F)(F)F)CCC3)C[C@H]2CC)c(C(=O)N[C@@H]2CN3CCC2CC3)n1 [ATUMELNANT]
- Activity (Rattus norvegicus): inactive
- Ratio IC50 (Homo sapiens [2]): > 2500
- inhibition (Homo sapiens [3]): > 70%
- Kb (CHO-K1 [4]): 0.23 nM
- inhibition [5]: > 70%
- Kb (CHO-K1 [6]): 0.25 nM

SMILES: C[C@@H]1CN(C(=O)c2ccc(C(F)(F)F)cc2Cl)CCN1c1ccc(C(F)(F)F)cc1CN
- fold change (FC) [7]: 2.1

SMILES: C[C@H]1CN(C(=O)c2ccc(C(F)(F)F)cc2Cl)CCN1c1ccc(C(F)(F)F)cc1CN
- fold change (FC) [7]: 0.6

The next lines start with the values.

- fold change (FC) (CHO-K1 [8]): 1
- fold change (FC) [7]: 2.6
- fold change (FC) (Melanocortin receptor 4): 0
SMILES: CC[C@@H]1CN(C(=O)c2ccc(C(F)(F)F)cc2Cl)CCN1c1ccc(C(F)(F)F)cc1CN

- Kb (CHO-K1 [4]): 78 nM
SMILES: CC[C@@H]1CN(C(=O)c2ccc(C(F)(F)F)cc2Cl)CCN1c1ccc(C(F)(F)F)cc1C(=O)NCCN

- Kb (CHO-K1 [4]): 252 nM
- fold change (FC) (CHO-K1 [8]): 1.5
SMILES: CC[C@@H]1CN(C(=O)c2ccc(C(F)(F)F)cc2Cl)CCN1c1ccc(C(F)(F)F)cc1CNC[C@H](C)O
